miR-21 reporter – raises the signal of a miR-21 reporter; HeLa miR-21 FLuc reporter, luciferase, 48 h; Potency, µM (top dose mostly 38.3 µM); AID 2288; 340,000 tested, under 10 active; active = well fitted rising curve with a large enough effect; inconclusive = small, poorly fitted or top-dose-only effect; inactive = no such curve, though single readings can be large or run the other way;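 note: miR-21 action dims this reporter so a rising signal means less miR-21 action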
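Using DMEM plus 10% FBS, HeLa miR-21-FLuc cells are incubated with test compounds (final up to about 40uM) for 48 hours; firefly luciferase signal is then imaged following reagent-mediated lysis.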
DT40 TDP1 CPT – growth inhibition of DT40 Tdp1-/-;hTDP1 cells with camptothecin (screen for TDP1 inhibitors). chicken DT40 Tdp1-/-;hTDP1 cells + 20 nM CPT, ATP luminescence, 48 h. Potency, µM (titrated, usually from 46.2 µM), hits mostly inhibitors. 420,000 tested, 12% active. AID 686979; further: nearly all actives have a fitted effect of over 55% in size
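Chicken DT40 Tdp1-/- cells complemented with human TDP1, 400 cells/well, exposed to compounds plus 20 nM camptothecin for at least 48 h at 37 C; viability read as ATP content by CellTiter-Glo luminescence.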
DT40 TDP1 no CPT – qHTS for Inhibitors of human tyrosyl-DNA phosphodiesterase 1 (TDP1): qHTS in cells in absence of CPT; DT40 Tdp1-/- hTDP1 cells, no CPT, ATP luminescence, 48 h; Potency, µM (doses to about 46.2 µM), actives largely listed as inhibitors; 420,000 tested, 15% active; AID 686978, 2013; further: nearly all actives have a fitted effect of over 55% in size
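A cellular qHTS used chicken DT40 cells lacking endogenous Tdp1 but carrying stably transfected human TDP1. Compounds were applied without camptothecin, and cell growth kinetics were judged by ATP-dependent luminescence after ≥48 hr.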
TDP1 block – inhibitors of human tyrosyl-DNA phosphodiesterase TDP1; recombinant TDP1, AlphaScreen DNA substrate cleavage; Potency, µM (titrated, usually from 130 µM), actives largely listed as inhibitors; 350,000 tested, 0.28% active; further: nearly all actives have a fitted effect of over 40% in size
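Enzyme-compound mixtures sat 15 min at room temperature, followed by a 5 min reaction with 15 nM final substrate and 10 min with AlphaScreen beads. Recombinant human Tdp1 was used at 1 nM final.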
uPA generation – blocks generation of uPA at the cell surface | Potency, µM (series often up to 38.3 µM), hits mostly inhibitors | 330,000 tested, 0.31% active | AID 540303 | cell surface uPA generation assay, qHTS; active means well fitted inhibition curve with a large enough effect; inconclusive means small, poorly fitted or top-dose-only effect; inactive means no such curve, though single readings can be large or run the other way; tested in mouse RAW 264.7 cells; further: nearly all actives have a fitted effect of over 55% in size
Numbers stand for hits; 0 = inactive; ? = inconclusive; - = not tested or not shown. Sampled rows, rich in hits. Any-hit rate of the full collection: about 16%. Unless noted, the call rests on the fitted dose curve; in most records, active means well fitted curve in the direction sought with a large enough effect; inconclusive means small, poorly fitted or top-dose-only effect, or another doubt; inactive means no such curve, though single readings can be large; an effect the other way counts as inactive or inconclusive.

SMILES | miR-21 reporter | DT40 TDP1 CPT | DT40 TDP1 no CPT | TDP1 block | uPA generation
Cn1c(=NC(=O)CCl)sc2ccccc21 | ? | 2.6µM | 4.1µM | 0 | 0
CC(=O)SCC(=O)N=c1sc2cc(F)ccc2n1C | 0 | ? | 21µM | 0 | 0
CCOC(=O)N1CCN(C(=O)CSCC(=O)N=c2sc3cc(OC)ccc3n2C)CC1 | - | ? | ? | - | 0
CCOC(=O)N1CCN(C(=O)CSCC(=O)N=c2sc3ccccc3n2C)CC1 | 0 | 16µM | ? | 0 | 0
Cn1c(=NC(=O)CCS(=O)(=O)c2ccccc2)sc2cc(F)ccc21 | - | ? | ? | - | 0
Cc1ccc(CNC(=O)CNS(=O)(=O)c2ccc3c(c2)C(C)(C)C(=O)N3C)cc1 | 0 | 0 | 0 | - | 0
Cc1cc(NC(=O)c2ccccc2O)nc(C)n1 | 0 | 0 | 0 | 0 | 0
C[Se]CCC(N)C(=O)O (configuration not stated) | - | 0 | 0 | 0 | -
O=C(NC1(Cc2ccccc2)CCN(CCCc2ccccc2)C1=O)c1ccccc1 (configuration not stated) | - | 0.65µM | 1.2µM | 0 | ?
COc1ccc(-c2nn(CCC#N)cc2C(=O)Nc2cccc(C(=O)O)c2)cc1[N+](=O)[O-] | 0 | 0 | 0 | 0 | 0
CS(=O)(=O)c1ccc2nc(NC(=O)c3ccco3)sc2c1 | 0 | ? | ? | 0 | 10µM
CS(=O)(=O)c1ccc2nc(NC(=O)c3cc4ccccc4o3)sc2c1 | 0 | ? | ? | 0 | 0
O=C(Nc1nc2cc3c(cc2s1)OCO3)c1ccco1 | 0 | ? | ? | - | 0
O=C(NC(=S)Nc1nc2ccc(F)cc2s1)c1ccco1 | 0 | 4.1µM | 2.9µM | 0 | 0
CS(=O)(=O)c1ccc2sc(NC(=O)c3cc4ccccc4o3)nc2c1 | 0 | ? | 23µM | - | 0
Cc1ccc(C(=O)Nc2nc3ccc(S(C)(=O)=O)cc3s2)o1 | 0 | 10µM | 12µM | 0 | 0
O=C(COc1ccc(Cc2ccccc2)cc1)c1ccc(F)cc1 | 0 | ? | ? | 0 | 0
COc1ccc2nc(NC(=O)c3c(C)noc3C)sc2c1 | - | 0 | 0 | 0 | ?
Cc1noc(C)c1C(=O)Nc1nc2ccc(S(C)(=O)=O)cc2s1 | 0 | 0 | ? | 0 | 5µM
O/N=C1/C2C3CC4C5C3C1C5C1(OCCO1)C42 (configuration not stated) | 0 | 0 | 0 | 0 | -
O=C(CSC1=NCCN1)NC1CCCCCC1 | 0 | ? | 18µM | 0 | 0
O=C(CSc1nccc(=O)[nH]1)NC1CCCCCCC1 | - | 0 | 0 | 0 | 0
O=C(CSC1=NCCN1)NC12CC3CC(CC(C3)C1)C2 | 0 | 26µM | 15µM | 0 | 0
CC(=O)Nc1ccc(NC(=O)c2cc(-c3ccc(C)c(C)c3O)n[nH]2)cc1 | 0 | 0 | 0 | - | 0
Cc1cc(C)c(O)c(-c2cc(C(=O)Nc3ccc(S(=O)(=O)N4CCOCC4)cc3)[nH]n2)c1 | ? | 16µM | 16µM | 0 | 0
SMILES | miR-21 reporter | DT40 TDP1 CPT | DT40 TDP1 no CPT | TDP1 block | uPA generation
CC(=O)Nc1ccc(NC(=O)c2cc(-c3cc(C)cc(C)c3O)n[nH]2)cc1 | 0 | 12µM | 16µM | - | 0
COc1cc(NC(=O)c2ccc(C)cc2C)ccc1NC(=O)c1cc2ccccc2o1 | 0 | ? | ? | - | 0
COc1cc2c(cc1NC(=O)CSc1nccn1C)oc1ccccc12 | 0 | ? | 18µM | 0 | 0
COc1cc2c(cc1NC(=O)CSc1nc3cc(Cl)ccc3s1)oc1ccccc12 | 0 | ? | 12µM | 0 | 0
COc1cc2c(cc1NC(=O)CSc1ccccc1)oc1ccccc12 | 0 | ? | ? | 0 | 0
CCSc1nnc(NC(=O)C2C3C=CC(C3)C2C(=O)O)s1 (configuration not stated) | 0 | 0 | 0 | 0 | -
COc1ccc(CNC(=O)/C(C)=C\C(=O)O)cc1 | 0 | 0 | 0 | 0 | 0
CC(=O)n1c2c(c3ccccc31)OC(N)=C(C#N)C2c1cccc(Cl)c1Cl (configuration not stated) | 0 | 15µM | 7.3µM | 0 | ?
N#CC1=C(N)Oc2cc(N)ccc2C1c1ccccc1Cl (configuration not stated) | 0 | ? | ? | - | ?
O=C(Nc1nnc(C2CC2)o1)c1ccc(S(=O)(=O)N2CCCc3ccccc32)cc1 | ? | 4.6µM | ? | 0 | 6.3µM
O=C(NCc1ccccc1)c1ccc(S(=O)(=O)N2CCCc3ccccc32)cc1 | 0 | 0 | 0 | 0 | 0
COCc1nnc(NC(=O)c2ccc(S(=O)(=O)N3CCOCC3)cc2)o1 | 0 | 0 | 0 | 0 | 0
COCc1nnc(NC(=O)c2ccc(S(=O)(=O)N3CCCc4ccccc43)cc2)o1 | 0 | 23µM | ? | 0 | 0
COc1ccc(-c2nnc(NC(=O)c3ccc(S(=O)(=O)N4CCCc5ccccc54)cc3)o2)cc1 | 0 | 3.2µM | 5.6µM | 0 | 0
C#CCOCCOCCOCCNc1nc(N2CCN(C(=O)[C@H](CCC(=O)O)n3cc(C(N)CO)nn3)CC2)nc(N2CCN(C(=O)[C@H](CCC(=O)O)n3cc(C(N)[C@H](C)CC)nn3)CC2)n1 (some centres not stated) | 0 | 0 | 0 | 0 | 0
CCn1c(-c2csc3c2CCCC3)n[nH]c1=S | 0 | 29µM | 23µM | 0 | 0
CCn1c(-c2ccccc2SC)n[nH]c1=S | 0 | 0 | 16µM | 0 | 0
CCCCNC(=O)C1(C)CCC(=O)N1C1CCN(Cc2ccccc2)CC1 (configuration not stated) | - | 0 | 0 | - | -
O=C(Nn1cnnc1)c1ccc(Cl)c([N+](=O)[O-])c1 | 0 | 0 | 0 | 0 | 0
C/C(=N\NC(=O)c1ccco1)c1ccc(-c2ccccc2)cc1 | 0 | 0 | 0 | 0 | 0
Cc1ccc(C)c(NC(=O)c2cccc(Oc3ccc([N+](=O)[O-])cc3Cl)c2)c1 | 0 | ? | 16µM | 0 | ?
COc1ccc(NC(=O)c2cccc(Oc3ccc([N+](=O)[O-])cc3Cl)c2)cc1 | 0 | 5.8µM | 4.6µM | 0 | 0
O=[N+]([O-])c1ccc(Oc2ccc(-c3nnco3)cc2)c(Cl)c1 | 0 | 0 | 0 | 0 | 0
CCN(CC)C(=O)c1ccc(Oc2ccc([N+](=O)[O-])cc2Cl)cc1 | 0 | ? | 16µM | 0 | 0
Cc1ccccc1N1CC(C(=O)N2CCc3ccccc32)CC1=O (configuration not stated) | - | 0 | 0 | 0 | 0
CCOc1ccc(C)cc1S(=O)(=O)NC1CCCCC1 | 0 | ? | ? | 0 | 0
Cc1ccc(C(=O)c2nocc2C(=O)c2cccs2)cc1 | 0 | 0 | ? | 0 | 0
O=C(CNC(=O)OCc1ccccc1)NC(Cc1cnc[nH]1)C(=O)O (configuration not stated) | - | ? | 16µM | - | 0
COc1ccc(S(=O)(=O)N2CCCOC2CNC(=O)C(=O)NCc2ccccc2F)cc1C (configuration not stated) | 0 | 0 | ? | 0 | 0
Cc1cc(C)cc(CC2CC(=O)N(c3ccc([N+](=O)[O-])cc3)C2=O)c1 (configuration not stated) | 0 | 0 | 0 | - | 0

Compound activity (PubChem BioAssay)
